This is one part of the list. Results filed as inconclusive are left out. Activity calls are given as the source filed them. The call rests on the fitted dose curve.
These molecules were tested against Importin subunit beta-1 (Homo sapiens) (UniProt Q14974) (assay: qHTS Assay for Inhibitors of Rango (Ran-regulated importin-beta cargo) - Importin beta complex formation). Conditions: Rango CFP/YFP FRET sensor + importin beta, 45 min; at 92.2 µM (top of the series).
Source text: NIH Molecular Libraries Probe Production Centers Network [MLPCN] NIH Chemical Genomics Center [NCGC] MLPCN Grant: R03 MH090808-01A1 Assay Submitter (PI): Petr Kalab NCGC Assay Overview: The small GTPase Ran regulates transport of macromolecules between the nucleus and the cytoplasm (nuclear transport) and has important functions in mitotic spindle assembly, nuclear envelope (NE) formation and nuclear pore complex (NPC) assembly. RanGTP gradient is thought to promote spindle assembly by providing a spatial clue to microtubule nucleation and Aurora A activation. Because the localized release and binding of importin alpha cargo relays this spatial clue to SAFs, inhibitors of the Rango - importin beta complex can then be used in further understanding their role in cell cycle specifically in mitosis progression. […] Activation of Aurora A has been linked to different types of cancer and a number of Aurora kinase inhibitors are being developed as potential canter therapeutics therefore, identified inhibitors of this complex could be developed into potential anti-mitotic probes for cancer treatment. Purified recombinant proteins Rango and importin beta were provided by the assay submitter. The assay used a fluorescence resonance energy transfer (FRET) Rango biosensor that contains the IBB of human snurportin 1 flanked by yellow fluorescent protein (EYFP) at the amino terminus and cerulean CFP10 at the carboxy terminus. […] Inhibitors will therefore be identified based on the ability to interfere with the FRET signal decrease. DMSO treated and no importin beta (buffer only) wells were used as negative and positive controls respectively. FRET readings were obtained at two time points. FRET reading prior to importin beta addition (pre-read) were used flag potential compound interference; FRET reading after importin beta addition (post-read) were used to identify inhibitors using the FRET ratio parameter.
NCGC Assay Protocol Summary: Two and a half uL/well of Rango-buffer solution (50 nM Rango, 1x PBS, 1mM DTT, 0.02% Tween-20, 0.1% BSA final concentrations) was dispensed into 1536-well assay plates (Greiner, solid black medium-binding plates) with Aurora Discovery BioRAPTR Flying Reagent Dispenser (FRD; Beckton-Dickenson). Compound solution (23 nL) was transferred to the assay plate using Kalypsys pin tool equipped with a 1536-pin tool and incubated at room temperature for 5 min followed by a FRET pre-read using the PerkinElmer Envision plate reader. Two and a half uL/well of Importin beta - buffer solution (0.125 microM importin beta, 1x PBS, 1mM DTT, 0.02% Tween-20, 0.1% BSA final concentrations) were then added and incubated at room temperature giving a final reaction volume of 5uL. After 45min FRET post-read was obtained via the Envision plate reader using the same optics and settings as the pre-read (CFP/YFP optimized dual optical module D450/D505; excitation mirror CFP 430/24 nm; and emission filters CFP 486/10 nm and YFP 530/10 nm).
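Further: 0% = DMSO wells and 100% = buffer wells lacking importin beta; nearly all actives have a fitted effect of over 15% in size.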

Chains of the proteins cited; added tags and fusions are not shown.
UniProt Q14974, whole entry: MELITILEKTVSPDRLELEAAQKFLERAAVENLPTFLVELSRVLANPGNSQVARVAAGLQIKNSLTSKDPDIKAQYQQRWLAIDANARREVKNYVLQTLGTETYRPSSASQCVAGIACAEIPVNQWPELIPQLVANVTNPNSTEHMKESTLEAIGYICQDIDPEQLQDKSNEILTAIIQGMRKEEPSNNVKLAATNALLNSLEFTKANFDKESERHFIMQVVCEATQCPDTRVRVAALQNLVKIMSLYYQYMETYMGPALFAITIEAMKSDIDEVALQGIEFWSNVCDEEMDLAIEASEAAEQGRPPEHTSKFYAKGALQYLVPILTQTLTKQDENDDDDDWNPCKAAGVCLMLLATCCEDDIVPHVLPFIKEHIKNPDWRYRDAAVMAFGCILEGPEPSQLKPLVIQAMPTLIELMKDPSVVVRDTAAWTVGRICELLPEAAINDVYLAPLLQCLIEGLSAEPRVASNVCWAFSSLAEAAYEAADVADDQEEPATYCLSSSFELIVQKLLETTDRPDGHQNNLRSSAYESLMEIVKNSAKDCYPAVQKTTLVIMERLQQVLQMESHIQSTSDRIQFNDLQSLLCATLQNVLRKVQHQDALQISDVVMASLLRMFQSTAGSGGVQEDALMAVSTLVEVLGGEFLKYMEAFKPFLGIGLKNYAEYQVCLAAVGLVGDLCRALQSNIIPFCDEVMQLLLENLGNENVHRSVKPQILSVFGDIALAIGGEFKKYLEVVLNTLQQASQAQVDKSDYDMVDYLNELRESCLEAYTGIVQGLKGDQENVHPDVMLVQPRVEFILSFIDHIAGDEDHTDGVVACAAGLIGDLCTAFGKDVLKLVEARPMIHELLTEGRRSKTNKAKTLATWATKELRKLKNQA
UniProt O95149, whole entry partner: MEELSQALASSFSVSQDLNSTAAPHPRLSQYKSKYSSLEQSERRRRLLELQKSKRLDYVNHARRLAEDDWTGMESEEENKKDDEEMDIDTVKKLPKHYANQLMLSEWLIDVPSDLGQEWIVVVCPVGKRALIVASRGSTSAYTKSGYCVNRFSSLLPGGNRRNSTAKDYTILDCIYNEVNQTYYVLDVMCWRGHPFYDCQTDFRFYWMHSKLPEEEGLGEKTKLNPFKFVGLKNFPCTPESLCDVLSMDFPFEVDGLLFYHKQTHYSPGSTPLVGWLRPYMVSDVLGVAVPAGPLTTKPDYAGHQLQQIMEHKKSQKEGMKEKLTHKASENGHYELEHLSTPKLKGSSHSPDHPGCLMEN

`COC(=O)C1(C)COP(=O)(Nc2ccccc2)OC1` (stereo not given) was tested. Which inhibition of complex formation did it give?
Its inhibition of complex formation is inactive: -1.03%.

For `O=[N+]([O-])c1cccc(NC2=NCC(CBr)S2)c1` (stereo not given), which inhibition of complex formation is on record?
The inhibition of complex formation was inactive: -3.75%.

How did the inhibition of complex formation turn out when `O=C(O)CNc1ccc([As](=O)(O)O)cc1` was run?
The inhibition of complex formation was inactive: 3.77%.

`Nc1ccc2c(ccc3cccnc32)n1.O=[N+]([O-])c1cc([N+](=O)[O-])c(O)c([N+](=O)[O-])c1` was tested. Which inhibition of complex formation did it give?
The inhibition of complex formation was inactive: 5.66%.

Which inhibition of complex formation does the source give for `O=P1(N(CCCl)CCCl)OCCCS1` (stereo not given) here?
Its inhibition of complex formation is inactive: -2.85%.

`CCOC(=O)c1ccc(NP(C)(=O)Oc2ccc(Cl)cc2)cc1` (stereo not given) was tested. Which inhibition of complex formation did it give?
The inhibition of complex formation was inactive: -3.37%.

Which inhibition of complex formation does the source give for `O=C(Nc1cc([As](=O)(O)O)ccc1O)c1ccccc1` here?
Its inhibition of complex formation is inactive: -0.237%.

With `CP(=O)(OC12CC3CC(CC(C3)C1)C2)OC12CC3CC(CC(C3)C1)C2` as the molecule, how does the inhibition of complex formation read?
The inhibition of complex formation was inactive: 3.02%.

`COc1ccccc1OP(C)(=O)Nc1ccccc1Br` (stereo not given) was tested. Which inhibition of complex formation did it give?
The inhibition of complex formation was inactive: -0.084%.

For `Nc1ccc([As](=O)(O)c2ccc(N)cc2)cc1`, which inhibition of complex formation is on record?
Its inhibition of complex formation is inactive: -0.74%.

With `CC(C)(C)c1ccc(OP(C)(=O)O)cc1` as the molecule, how does the inhibition of complex formation read?
Its inhibition of complex formation is inactive: -0.592%.

`C[N+]1=C2C=CC=CC=C2SC12C([N+](=O)[O-])=CC([N+](=O)[O-])=C[C-]2[N+](=O)[O-]` (stereo not given) was tested. Which inhibition of complex formation did it give?
The inhibition of complex formation was inactive: -0.0211%.

With `CCN(/C(=N/P(=O)(N1CCOCC1)N1CCOCC1)N1CCOCC1)c1ccc(OC)cc1` as the molecule, how does the inhibition of complex formation read?
Its inhibition of complex formation is inactive: -0.127%.

With `CP(=O)(Nc1ccc(Cl)cc1)Oc1ccc(F)cc1` (stereo not given) as the molecule, how does the inhibition of complex formation read?
Its inhibition of complex formation is inactive: 0.597%.

With `CC(C)=N/N=C(\N)N[N+](=O)[O-]` as the molecule, how does the inhibition of complex formation read?
Its inhibition of complex formation is inactive: -2.11%.

How did the inhibition of complex formation turn out when `CN(C)C(=O)c1c([N+](=O)[O-])cc([N+](=O)[O-])cc1[N+](=O)[O-]` was run?
The inhibition of complex formation was inactive: -0.0742%.

With `CC1CCN(C(=O)Oc2c(Cl)cc(Cl)c3cccnc23)CC1` as the molecule, how does the inhibition of complex formation read?
Its inhibition of complex formation is inactive: -0.348%.

With `COc1ccc(OP(C)(=O)Nc2ccc(Br)cc2)cc1` (stereo not given) as the molecule, how does the inhibition of complex formation read?
Its inhibition of complex formation is inactive: -0.668%.

With `COc1ccc(C2=NCC(CBr)S2)cc1` (stereo not given) as the molecule, how does the inhibition of complex formation read?
Its inhibition of complex formation is inactive: 7.53%.

For `O=[N+]([O-])c1cccc2n[nH]nc12`, which inhibition of complex formation is on record?
The inhibition of complex formation was inactive: -0.933%.

For `COc1ccccc1OP(C)(=O)Nc1c(C)n(C)n(-c2ccccc2)c1=O` (stereo not given), which inhibition of complex formation is on record?
Its inhibition of complex formation is inactive: 2.41%.

With `O=C(OCCCN1CCCC1)C(O)(c1ccccc1)C1CCCCC1` (stereo not given) as the molecule, how does the inhibition of complex formation read?
Its inhibition of complex formation is inactive: 0.593%.

Which inhibition of complex formation does the source give for `CP(=O)(Oc1ccccc1)N1CCOC1=O` (stereo not given) here?
Its inhibition of complex formation is inactive: -1.85%.

How did the inhibition of complex formation turn out when `Cc1ccc(NP(=O)(Oc2ccccc2)Oc2ccccc2)nc1` was run?
The inhibition of complex formation was inactive: -0.585%.

How did the inhibition of complex formation turn out when `CCc1ccc(OP(C)(=O)Nc2cccnc2)cc1` (stereo not given) was run?
Its inhibition of complex formation is inactive: 5.5%.

With `O=[N+]([O-])c1cc([N+](=O)[O-])c(CCNc2ccccc2)c([N+](=O)[O-])c1` as the molecule, how does the inhibition of complex formation read?
The inhibition of complex formation was inactive: -0.207%.

`CCc1nc2c(n1)c1c(non1O)c1c2no[n+]1[O-]` was tested. Which inhibition of complex formation did it give?
Its inhibition of complex formation is inactive: 0.0141%.

How did the inhibition of complex formation turn out when `Nc1cc(N)c2nonc2c1[N+](=O)[O-]` was run?
Its inhibition of complex formation is inactive: -0.339%.

How did the inhibition of complex formation turn out when `Cc1c(NP(C)(=O)Oc2ccc(C(C)C)cc2)c(=O)n(-c2ccccc2)n1C` (stereo not given) was run?
The inhibition of complex formation was inactive: -6.89%.

Which inhibition of complex formation does the source give for `O=[N+]([O-])c1cc([N+](=O)[O-])c(Nc2ccccn2)c([N+](=O)[O-])c1` here?
Its inhibition of complex formation is inactive: 7.52%.

How did the inhibition of complex formation turn out when `CC(C)CC(=O)NC(Sc1ccc(Cl)cc1)C(Cl)(Cl)Cl` (stereo not given) was run?
Its inhibition of complex formation is inactive: 0.241%.

With `Oc1ccccc1CNc1ccccn1` as the molecule, how does the inhibition of complex formation read?
The inhibition of complex formation was inactive: 2.99%.

For `O=C(NC(Sc1ccncn1)C(Cl)(Cl)Cl)c1ccccc1` (stereo not given), which inhibition of complex formation is on record?
The inhibition of complex formation was inactive: -0.403%.

For `CP(=O)(Nc1ccccn1)Oc1ccccc1` (stereo not given), which inhibition of complex formation is on record?
Its inhibition of complex formation is inactive: 5.1%.

How did the inhibition of complex formation turn out when `COc1ccccc1OP(C)(=O)Nc1ccc(C)cc1C` (stereo not given) was run?
Its inhibition of complex formation is inactive: 0.126%.

For `CCc1ccc(OP(C)(=O)O)cc1`, which inhibition of complex formation is on record?
Its inhibition of complex formation is inactive: 2.21%.

With `NC(=O)c1cc([N+](=O)[O-])cc([N+](=O)[O-])c1N` as the molecule, how does the inhibition of complex formation read?
Its inhibition of complex formation is inactive: 4.02%.

How did the inhibition of complex formation turn out when `CN(C(=O)Cc1ccc(Cl)c(Cl)c1)[C@H]1CCCC[C@H]1N1CCCC1` was run?
Its inhibition of complex formation is inactive: 0.921%.

Which inhibition of complex formation does the source give for `COc1ccccc1OP(C)(=O)Nc1ccc(Br)cc1` (stereo not given) here?
The inhibition of complex formation was inactive: 2.48%.

For `Cc1ccc(N/C(=N/P(=O)(N2CCOCC2)N2CCOCC2)N2CCOCC2)cc1`, which inhibition of complex formation is on record?
The inhibition of complex formation was inactive: -0.991%.

For `COc1ccccc1OP(=O)(Nc1ccc(C)cn1)Oc1ccccc1OC`, which inhibition of complex formation is on record?
The inhibition of complex formation was inactive: 2.15%.

For `COc1ccc(OP(C)(=O)Nc2ccccn2)cc1` (stereo not given), which inhibition of complex formation is on record?
Its inhibition of complex formation is inactive: -2.32%.

Which inhibition of complex formation does the source give for `Cc1ccc(OP(=O)(Nc2nccs2)Oc2ccc(C)cc2)cc1` here?
Its inhibition of complex formation is inactive: 3.81%.

With `CN1CCCC(OC(=O)C(c2ccccc2)c2ccccc2)C1` (stereo not given) as the molecule, how does the inhibition of complex formation read?
The inhibition of complex formation was inactive: -2.55%.

With `CN(C)CCOC(=O)C(O)(c1ccccc1)C1CCCC1` (stereo not given) as the molecule, how does the inhibition of complex formation read?
The inhibition of complex formation was inactive: 1.32%.

With `Clc1ccc(Cl)c(NC2=NCC(CBr)S2)c1` (stereo not given) as the molecule, how does the inhibition of complex formation read?
Its inhibition of complex formation is inactive: -1.02%.

How did the inhibition of complex formation turn out when `CCN(N=Nc1nonc1N)c1nonc1N` was run?
Its inhibition of complex formation is inactive: 1.54%.

For `Nc1cccc2ccc([As](=O)(O)O)cc12`, which inhibition of complex formation is on record?
Its inhibition of complex formation is inactive: -1.48%.

`CCCCCCCCCCCCCCCC1C[N+](C)(C)CCOP(C)(=O)O1` (stereo not given) was tested. Which inhibition of complex formation did it give?
Its inhibition of complex formation is inactive: 3.64%.

For `CP(=O)(Nc1ccc(Cl)cc1Cl)Oc1ccccc1` (stereo not given), which inhibition of complex formation is on record?
The inhibition of complex formation was inactive: -0.0983%.

`CP(=O)(OCCOc1ccccc1)OCCOc1ccccc1` was tested. Which inhibition of complex formation did it give?
The inhibition of complex formation was inactive: 3.71%.

`CC(=O)Nc1ccc([As](=O)(O)O)cc1` was tested. Which inhibition of complex formation did it give?
The inhibition of complex formation was inactive: 3.51%.

`O=C(O)c1ccccc1[As](=O)(O)O` was tested. Which inhibition of complex formation did it give?
The inhibition of complex formation was inactive: 2.27%.

Which inhibition of complex formation does the source give for `CCCC1OP(N)(=O)OCC1CC` (stereo not given) here?
The inhibition of complex formation was inactive: -0.903%.

Which inhibition of complex formation does the source give for `O=P(Nc1nc2ccc(Cl)cc2s1)(c1ccccc1)c1ccccc1` here?
Its inhibition of complex formation is inactive: -2.65%.

How did the inhibition of complex formation turn out when `Cc1cc(C)cc(OP(C)(=O)Nc2cccc(C(F)(F)F)c2)c1` (stereo not given) was run?
Its inhibition of complex formation is inactive: 2.12%.

`Cc1cc(SC(NC(=O)c2ccc(F)cc2)C(Cl)(Cl)Cl)ncn1` (stereo not given) was tested. Which inhibition of complex formation did it give?
Its inhibition of complex formation is inactive: -1.87%.

Which inhibition of complex formation does the source give for `CCOP(=O)(Nc1ccccc1)OCC` here?
The inhibition of complex formation was inactive: -0.436%.

Which inhibition of complex formation does the source give for `COc1ccccc1OP(C)(=O)Nc1ccc(C)c(C)c1` (stereo not given) here?
The inhibition of complex formation was inactive: -0.172%.

For `CN(C(=O)Cc1ccc(Cl)c(Cl)c1)[C@H]1CCCC[C@@H]1N1CCCC1`, which inhibition of complex formation is on record?
Its inhibition of complex formation is inactive: 1.33%.

`Cc1ccc(NP(=O)(Oc2ccccc2F)Oc2ccccc2F)nc1` was tested. Which inhibition of complex formation did it give?
Its inhibition of complex formation is inactive: 1.04%.

For `COc1ccc(OP(C)(=O)Nc2ccccc2Br)cc1` (stereo not given), which inhibition of complex formation is on record?
The inhibition of complex formation was inactive: 5.77%.

Which inhibition of complex formation does the source give for `COC(=O)c1cc2c(s1)N=C(c1ccccc1)N(C)P2(=O)N1CCOCC1` (stereo not given) here?
The inhibition of complex formation was inactive: -0.546%.

Which inhibition of complex formation does the source give for `Cc1c([N+](=O)[O-])cc([N+](=O)[O-])c(Br)c1[N+](=O)[O-]` here?
The inhibition of complex formation was inactive: -0.376%.

For `Cc1ccc(OP(=O)(Nc2ccccn2)Oc2ccc(C)cc2)cc1`, which inhibition of complex formation is on record?
The inhibition of complex formation was inactive: -2.61%.
